Reference: ChEMBL document CHEMBL3525922, “Significance of reductive metabolism in human intestine and quantitative prediction of intestinal first-pass metabolism by cytosolic reductive enzymes” (Drug Metab Dispos, 2013)

Columns and labels:
[1] = system: Liver cytosol; assay: Unbound intrinsic clearance in human liver cytosol at 50 to 1000 nM after 30 to 60 mins by HPLC-MS/MS analysis; type: ADME, tissue-based; conditions: 1 µM
[2] = system: Liver; assay: Unbound intrinsic clearance in human liver S9 fraction at 50 to 1000 nM after 30 to 60 mins by HPLC-MS/MS analysis; type: ADME, subcellular; conditions: s9, 1 µM
[3] = Unbound intrinsic clearance in human intestinal cytosol at 50 to 1000 nM after 30 to 60 mins by HPLC-MS/MS analysis; type: ADME, Intestine; conditions: 1 µM
[4] = Unbound intrinsic clearance in human intestinal S9 fraction at 50 to 1000 nM after 30 to 60 mins by HPLC-MS/MS analysis; type: ADME, Intestine; conditions: s9, 1 µM
[5] = Unbound intrinsic clearance in human intestinal S9 fraction at 50 to 1000 nM after 30 to 60 mins by HPLC-MS/MS analysis in presence of NADPH; type: ADME, Intestine; conditions: s9, 1 µM

With COC(=O)Nc1nc2ccc(C(=O)c3ccccc3)cc2[nH]1 [MEBENDAZOLE] the CL free [1] was 11 µL/min/mg, the CL free [2] was 16 µL/min/mg and the CL free [3] was 45 µL/min/mg. The CL free [4] was 61 µL/min/mg and the CL free [5] was 61 µL/min/mg.
